For one compound, IC50 results are on record in ChEMBL document CHEMBL1141480 (Bioorg Med Chem Lett, 2008).

By UniProt entry, the sequences of proteins in these tests, tags left out. Residues count along the entry.
UniProt P43235, 115-329 limits assumed: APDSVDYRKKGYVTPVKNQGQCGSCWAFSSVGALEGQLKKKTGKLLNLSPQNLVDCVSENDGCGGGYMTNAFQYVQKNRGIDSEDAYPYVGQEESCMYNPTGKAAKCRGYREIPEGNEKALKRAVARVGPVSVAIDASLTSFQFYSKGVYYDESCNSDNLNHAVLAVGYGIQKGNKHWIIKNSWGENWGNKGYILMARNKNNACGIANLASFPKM

The target of assay [1] is Cathepsin K (Homo sapiens, UniProt P43235). As to the kind of experiment: Inhibition of humanized rabbit cathepsin K. The method, boiled down:
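Enzyme was humanized rabbit cathepsin K, with assay conditions per an earlier report. Read-out is IC50; standard deviations were typically within 35% of the IC50.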

Assay [2] concerns the target T1, Cathepsin K (Oryctolagus cuniculus, UniProt P43236).
T1 sequence (P43236 whole entry): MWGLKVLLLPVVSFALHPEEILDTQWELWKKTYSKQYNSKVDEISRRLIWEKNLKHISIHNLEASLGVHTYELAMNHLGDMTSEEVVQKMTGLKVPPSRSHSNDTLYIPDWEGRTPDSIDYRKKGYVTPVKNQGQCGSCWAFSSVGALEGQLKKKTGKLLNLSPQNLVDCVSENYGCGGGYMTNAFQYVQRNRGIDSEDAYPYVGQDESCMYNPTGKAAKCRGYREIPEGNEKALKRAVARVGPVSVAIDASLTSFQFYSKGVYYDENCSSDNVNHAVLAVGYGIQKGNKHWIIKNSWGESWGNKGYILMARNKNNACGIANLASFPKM
As to the kind of experiment: Inhibition of rabbit cathepsin K.

Each structure is given as a SMILES string.

Consider `CC(C)C[C@H](NC(=O)c1cc2ccccc2o1)C(=O)N[C@H]1CC[C@@H](C)N(S(=O)(=O)c2ccccn2)CC1=O` [RELACATIB], for which the half-inhibitory concentration (IC50) at Cathepsin K [1] and against Cathepsin K [2] was 0.5 nM each time.
